Measured values published in BindingDB's records for US9162983.

The chains behind the UniProt entries cited, without tags or fusion partners. Residues count along the entry.
UniProt P22303, 32-614 limits assumed: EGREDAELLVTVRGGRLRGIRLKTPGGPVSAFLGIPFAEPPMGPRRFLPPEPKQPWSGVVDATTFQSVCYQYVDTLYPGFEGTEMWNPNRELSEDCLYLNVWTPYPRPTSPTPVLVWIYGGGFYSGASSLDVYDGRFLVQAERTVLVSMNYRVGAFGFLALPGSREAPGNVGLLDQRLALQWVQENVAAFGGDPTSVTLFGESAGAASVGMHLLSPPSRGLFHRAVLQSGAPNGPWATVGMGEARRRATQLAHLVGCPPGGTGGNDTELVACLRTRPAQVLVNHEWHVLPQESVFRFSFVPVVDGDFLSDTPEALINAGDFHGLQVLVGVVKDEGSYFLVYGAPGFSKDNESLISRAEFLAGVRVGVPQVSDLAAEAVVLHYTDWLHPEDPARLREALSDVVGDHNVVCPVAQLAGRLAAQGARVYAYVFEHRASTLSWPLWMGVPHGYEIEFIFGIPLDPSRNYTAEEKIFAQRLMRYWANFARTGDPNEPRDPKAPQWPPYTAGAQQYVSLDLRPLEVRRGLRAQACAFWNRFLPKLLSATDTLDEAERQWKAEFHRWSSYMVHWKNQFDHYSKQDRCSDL

Target: Acetylcholinesterase (Homo sapiens, UniProt P22303)
Assay: Enzyme Inhibition Assay

SMILES	Ki [µM]
O=C(/C=N/O)c1cccnc1OCC1CCN(Cc2ccccc2)CC1	0.18
CC(=O)/C(=N\O)C(=O)NCC1CCN(Cc2ccccc2)CC1	2.3
